Test results: patent US20020115689A1, “Combination therapy for treating neurodegenerative disease” (priority 1999, published 2002)

Test system: COX-1 and COX-2
Test: human whole blood assay (Chan, et al., JPET 290:551-560, 1999) for COX-1 and COX-2 inhibition
Type: cell-based
Conditions: approximate COX-2 selectivity ratio = IC50 for inhibition of COX-1 divided by IC50 for inhibition of COX-2, human whole blood assay
Text: The ability of a compound to inhibit COX-1 and/or COX-2 may be characterized by reference to a wide variety of assays. […] Moreover, for purposes of this patent application a COX-2 selectivity ratio is defined by the IC50 for the inhibition of COX-1 divided by the IC50 for the inhibition of COX-2 as measured by the Chan, et al., human whole blood assay.

## Cc1onc(-c2ccccc2)c1-c1ccc(S(N)(=O)=O)cc1 [Valdecoxib, 4-[5-methyl-3-phenyl-isoxazol-4-yl]benenesulfonamide]
  COX-1/COX-2 ratio of the IC50: 30.
